The target of assay [1] is T1, GMIIb (Golgi α-mannosidase) (Drosophila melanogaster, UniProt Q9VF33).
T1 sequence (Q9VF33 31-1249): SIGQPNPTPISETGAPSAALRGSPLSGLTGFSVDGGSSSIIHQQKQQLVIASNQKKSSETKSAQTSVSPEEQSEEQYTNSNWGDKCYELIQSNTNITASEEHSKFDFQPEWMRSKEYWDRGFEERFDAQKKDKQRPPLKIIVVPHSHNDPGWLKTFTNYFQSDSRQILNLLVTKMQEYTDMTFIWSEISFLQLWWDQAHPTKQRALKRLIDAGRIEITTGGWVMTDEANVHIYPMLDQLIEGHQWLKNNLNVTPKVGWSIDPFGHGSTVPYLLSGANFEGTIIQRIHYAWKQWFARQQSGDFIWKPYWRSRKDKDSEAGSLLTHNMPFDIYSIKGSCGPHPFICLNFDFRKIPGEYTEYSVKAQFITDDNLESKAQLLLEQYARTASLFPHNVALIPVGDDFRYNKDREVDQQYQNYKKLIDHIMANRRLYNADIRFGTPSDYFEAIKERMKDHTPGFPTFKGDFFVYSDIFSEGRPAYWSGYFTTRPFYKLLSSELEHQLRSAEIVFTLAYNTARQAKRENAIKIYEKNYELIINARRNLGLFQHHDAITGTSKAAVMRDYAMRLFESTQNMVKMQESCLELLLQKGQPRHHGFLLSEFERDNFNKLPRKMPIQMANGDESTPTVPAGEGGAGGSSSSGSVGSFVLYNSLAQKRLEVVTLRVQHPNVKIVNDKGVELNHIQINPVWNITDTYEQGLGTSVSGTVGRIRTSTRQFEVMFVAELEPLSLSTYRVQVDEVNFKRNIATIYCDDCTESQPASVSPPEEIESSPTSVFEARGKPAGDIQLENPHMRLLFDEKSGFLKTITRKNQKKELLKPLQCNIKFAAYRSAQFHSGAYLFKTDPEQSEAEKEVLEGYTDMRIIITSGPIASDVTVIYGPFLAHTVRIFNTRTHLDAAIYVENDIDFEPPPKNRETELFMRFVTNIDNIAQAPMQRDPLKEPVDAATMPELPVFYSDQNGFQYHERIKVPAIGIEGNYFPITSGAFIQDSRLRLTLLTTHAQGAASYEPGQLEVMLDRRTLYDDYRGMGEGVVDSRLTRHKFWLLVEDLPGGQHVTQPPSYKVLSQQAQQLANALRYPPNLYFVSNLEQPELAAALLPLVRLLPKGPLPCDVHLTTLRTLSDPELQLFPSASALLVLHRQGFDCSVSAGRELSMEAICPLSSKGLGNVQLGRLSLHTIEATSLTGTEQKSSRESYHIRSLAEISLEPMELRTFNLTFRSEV
As to conditions: cited from earlier work.

The target of assay [2] is T1, GMIIb (Golgi α-mannosidase). Description: α-mannosidase inhibition assay with pNP-Man, GMIIb. The class given is biochemical. To be noted: selectivity index.
The target in assay [3] is T2, AMAN-2 (Golgi α-mannosidase) (Caenorhabditis elegans, UniProt Q2PJ74).
T2 sequence (Q2PJ74 27-1145): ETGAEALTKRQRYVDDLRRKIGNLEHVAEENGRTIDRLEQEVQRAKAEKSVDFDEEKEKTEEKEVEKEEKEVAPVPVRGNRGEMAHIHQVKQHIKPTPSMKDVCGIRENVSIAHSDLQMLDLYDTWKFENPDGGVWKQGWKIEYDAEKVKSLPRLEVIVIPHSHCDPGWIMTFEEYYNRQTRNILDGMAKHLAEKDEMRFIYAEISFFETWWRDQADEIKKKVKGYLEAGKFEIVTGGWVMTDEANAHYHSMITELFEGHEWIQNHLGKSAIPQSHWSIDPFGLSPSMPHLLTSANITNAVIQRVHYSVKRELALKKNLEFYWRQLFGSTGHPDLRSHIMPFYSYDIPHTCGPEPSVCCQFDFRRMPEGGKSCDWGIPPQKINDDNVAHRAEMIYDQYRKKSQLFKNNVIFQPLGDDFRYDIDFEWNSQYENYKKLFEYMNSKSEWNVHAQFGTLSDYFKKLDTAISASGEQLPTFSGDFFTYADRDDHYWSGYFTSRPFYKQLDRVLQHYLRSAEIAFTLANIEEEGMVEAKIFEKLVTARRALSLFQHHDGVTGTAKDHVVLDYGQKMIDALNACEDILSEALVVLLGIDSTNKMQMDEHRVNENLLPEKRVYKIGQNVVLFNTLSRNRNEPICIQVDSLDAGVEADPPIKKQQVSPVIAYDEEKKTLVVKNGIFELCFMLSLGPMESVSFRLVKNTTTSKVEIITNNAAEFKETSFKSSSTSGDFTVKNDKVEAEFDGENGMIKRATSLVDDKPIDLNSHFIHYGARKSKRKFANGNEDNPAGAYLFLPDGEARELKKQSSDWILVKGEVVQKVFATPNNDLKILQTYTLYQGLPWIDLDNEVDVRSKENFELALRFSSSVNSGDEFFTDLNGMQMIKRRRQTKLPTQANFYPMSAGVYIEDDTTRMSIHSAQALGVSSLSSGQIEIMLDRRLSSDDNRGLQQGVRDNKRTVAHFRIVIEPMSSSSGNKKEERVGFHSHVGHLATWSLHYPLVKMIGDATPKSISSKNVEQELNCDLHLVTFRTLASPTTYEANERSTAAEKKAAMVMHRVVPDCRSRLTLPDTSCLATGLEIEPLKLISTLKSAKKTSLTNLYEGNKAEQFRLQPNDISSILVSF
Briefly: α-mannosidase inhibition assay with pNP-Man, AMAN-2. The class given is biochemical.

As to `O[C@H]1[C@H]2[C@H](O)CCCN2C[C@H]1O` [Swainsonine, (1S,2R,8R,8aR)-trihydroxy-indolizidine], the IC50 (usually the concentration that gives 50% inhibition) in assay [1] (read-out: IC50 GMIIb, ref Nemčovičová et al. 20) is 4.5 nM; in assay [3] (read-out: IC50 AMAN-2, 2 mM pNP-Man, pH 6.0), 4 nM. For the same compound, in assay [1] (read-out: Ki Golgi-type mannosidase (GMIIb)), the Ki (usually a measure of affinity in units of concentration, obtained from inhibition or displacement) was 3 nM. Moreover, the “SI^a = IC50(LManII)/IC50(GMIIb)” value in assay [2] was 3. Further, in assay [3] (selectivity index), the “SI^b = IC50(JBMan)/IC50(AMAN-2)” value is 20.
